Reference: patent US20090099157A1, “TETRAHYDRO-PYRAZOLO-PYRIDINE THIOETHER MODULATORS OF CATHEPSIN S” (priority 2007, published 2009)

The chains behind the UniProt entries cited, without tags or fusion partners. Residues count along the entry.
UniProt P25774, 115-331: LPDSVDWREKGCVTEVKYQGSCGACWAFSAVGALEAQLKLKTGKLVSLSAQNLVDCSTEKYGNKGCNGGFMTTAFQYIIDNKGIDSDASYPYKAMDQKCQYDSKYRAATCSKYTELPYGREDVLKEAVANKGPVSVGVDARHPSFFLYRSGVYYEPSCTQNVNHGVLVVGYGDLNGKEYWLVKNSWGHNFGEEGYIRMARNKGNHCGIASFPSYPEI

Target: Recombinant human cathepsin S (CatS) (Homo sapiens, UniProt P25774)
Assay: biochemical

Row | Structure (SMILES) | IC50
1 | CC(=O)NC1CCN(CCSc2cc(-c3nn(CCCN4CCC(N5CCCC5=O)CC4)c4c3CN(S(C)(=O)=O)CC4)ccc2C(F)(F)F)CC1 [Example 842, N-{1-[2-({5-[5-(Methylsulfonyl)-1-{3-[4-(2-oxopyrrolidin-1-yl)piperidin-1-yl]propyl}-4,5,6,7-tetrahydro-1H-pyrazolo[4,3-c]pyridin-3-yl]-2-(trifluoromethyl)phenyl}sulfanyl)ethyl]piperidin-4-yl}acetamide] | 1280 nM
2 | CC1(C)CCN(CC(O)Cn2nc(-c3ccc(C(F)(F)F)c(SCCN4CCCC4)c3)c3c2CCN(S(C)(=O)=O)C3)CC1 (stereo not drawn) [Example 378, 1-(4,4-Dimethylpiperidin-1-yl)-3-[5-(methylsulfonyl)-3-{3-[(2-pyrrolidin-1-ylethyl)sulfanyl]-4-(trifluoromethyl)phenyl}-4,5,6,7-tetrahydro-1H-pyrazolo[4,3-c]pyridin-1-yl]propan-2-ol] | 560 nM
3 | CS(=O)(=O)N1CCc2c(c(-c3ccc(C(F)(F)F)c(SCC(=O)N4CCOCC4)c3)nn2CC(O)CN2CC[C@H](O)C2)C1 (stereo partly drawn) [Example 407, (3S)-1-{2-Hydroxy-3-[5-(methylsulfonyl)-3-{3-[(2-morpholin-4-yl-2-oxoethyl)sulfanyl]-4-(trifluoromethyl)phenyl}-4,5,6,7-tetrahydro-1H-pyrazolo[4,3-c]pyridin-1-yl]propyl}pyrrolidin-3-ol] | 240 nM
4 | CS(=O)(=O)N1CCc2c(c(-c3ccc(C(F)(F)F)c(SCCOc4ccccc4)c3)nn2CCCN2CCOCC2)C1 [Example 130, 5-Methanesulfonyl-1-(3-morpholin-4-yl-propyl)-3-[3-(2-phenoxy-ethylsulfanyl)-4-trifluoromethyl-phenyl]-4,5,6,7-tetrahydro-1H-pyrazolo[4,3-c]pyridine] | 740 nM
5 | CS(=O)(=O)N1CCc2c(c(-c3ccc(C(F)(F)F)c(SCCN4CCOCC4)c3)nn2CC(O)CN2CCC(Oc3ncccn3)CC2)C1 (stereo not drawn) [Example 740, 1-[5-(Methylsulfonyl)-3-{3-[(2-morpholin-4-ylethyl)sulfanyl]-4-(trifluoromethyl)phenyl}-4,5,6,7-tetrahydro-1H-pyrazolo[4,3-c]pyridin-1-yl]-3-[4-(pyrimidin-2-yloxy)piperidin-1-yl]propan-2-ol] | 120 nM

Continued by falling IC50, values first:

Row | IC50 | Structure (SMILES)
6 | 2530 nM | O=C1CCCN1C1CCN(CC(O)Cn2nc(-c3ccc(C(F)(F)F)c(SCCN4CCCC(O)C4)c3)c3c2CCNC3)CC1 (stereo not drawn) [Example 419, 1-[1-(2-Hydroxy-3-{3-[3-{[2-(3-hydroxypiperidin-1-yl)ethyl]sulfanyl}-4-(trifluoromethyl)phenyl]-4,5,6,7-tetrahydro-1H-pyrazolo[4,3-c]pyridin-1-yl}propyl)piperidin-4-yl]pyrrolidin-2-one]
7 | 530 nM | O[C@@H](CN1CCN(c2ccc(F)cc2)CC1)Cn1nc(-c2ccc(C(F)(F)F)c(SCCN3CCC(F)CC3)c2)c2c1CCNC2 [Example 499, (2S)-1-[4-(4-Fluorophenyl)piperazin-1-yl]-3-{3-[3-{[2-(4-fluoropiperidin-1-yl)ethyl]sulfanyl}-4-(trifluoromethyl)phenyl]-4,5,6,7-tetrahydro-1H-pyrazolo[4,3-c]pyridin-1-yl}propan-2-ol]
8 | 25 nM | CS(=O)(=O)N1CCc2c(c(-c3ccc(C(F)(F)F)c(SCCN4CCCC4)c3)nn2CC(O)CN2CCC(c3ccccn3)CC2)C1 (stereo not drawn) [Example 621, 1-[5-(Methylsulfonyl)-3-{3-[(2-pyrrolidin-1-ylethyl)sulfanyl]-4-(trifluoromethyl)phenyl}-4,5,6,7-tetrahydro-1H-pyrazolo[4,3-c]pyridin-1-yl]-3-(4-pyridin-2-ylpiperidin-1-yl)propan-2-ol]
9 | 15 nM | CS(=O)(=O)N1CCc2c(c(-c3ccc(C(F)(F)F)c(SCCN4CCC(F)CC4)c3)nn2C[C@H](O)CN2CCN(c3ccccc3C#N)CC2)C1 [Example 827, 2-{4-[(2R)-3-{3-[3-{[2-(4-Fluoropiperidin-1-yl)ethyl]sulfanyl}-4-(trifluoromethyl)phenyl]-5-(methylsulfonyl)-4,5,6,7-tetrahydro-1H-pyrazolo[4,3-c]pyridin-1-yl}-2-hydroxypropyl]piperazin-1-yl}benzonitrile]
